Assay results taken from patent publication EP0932387B1, “SKIN CARE COMPOSITIONS CONTAINING COMBINATIONS OF COMPOUNDS FOR MIMICKING THE EFFECT ON SKIN OF RETINOIC ACID” (UNILEVER PLC, priority 1996, dated 1998).

Key:
[1] = test system: acyl CoA retinol transferase (ARAT); assay: In vitro Microsomal Assay, ARAT catalyzed retinol esterification (retinyl palmitate formation); type: biochemical, bovine; details: Table 3; 100 micromolar
[2] = biological target: T1, lecithin retinol acyl transferase (LRAT) (Bos taurus, UniProt Q9BGL2); assay: In vitro Microsomal Assay, LRAT catalyzed retinol esterification (retinyl laurate formation); type: biochemical, bovine; details: Table 3; 100 micromolar
T1 construct: a microsomal fraction isolated from bovine retinal pigment epithelial cells; from tissue; host or cells: bovine retinal pigment epithelium, microsomal fraction
T1 sequence (Q9BGL2 1-230): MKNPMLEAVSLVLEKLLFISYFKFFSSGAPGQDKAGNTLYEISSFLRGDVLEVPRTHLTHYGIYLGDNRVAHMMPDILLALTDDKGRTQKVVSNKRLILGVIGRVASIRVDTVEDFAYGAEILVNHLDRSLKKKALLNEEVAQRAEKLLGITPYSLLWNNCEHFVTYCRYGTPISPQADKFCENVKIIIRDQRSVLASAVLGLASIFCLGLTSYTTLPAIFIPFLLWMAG

% INHIB. ARAT [1]: 68%
% INHIB. LRAT [2]: 65%
Substance: cocoylhydroxyethyl imidazoline
